In paper PMC11121837, “Impact of Nitric Oxide-Release Kinetics on Antifungal Activity” (Journal of Fungi, 2024):

Key:
[1] = system: A. fumigatus (ATCC 1022) spores; settings: NO donor (24 h pretreatment of spores) then butenafine
[2] = system: C. albicans (MYA-2876); experiment: Confocal microscopy; format: cell-based, Candida albicans; settings: 5× MIC, 24 h

| Compound | checkerboard classification [1] | ∑FIC [1] | intracellular NO (DAF-2 DA fluorescence) [2] | propidium iodide fluorescence (cell death) ([2]; relative to control sample) | hyphae formation (calcofluor white staining) ([2]; relative to controls) |
| --- | --- | --- | --- | --- | --- |
| NCCN(CCN)/[N+]([O-])=N/O [DETA/NO, diethylenetriamine/NO] | I (indifferent (I)) | ≥ 1 | – | – | – |
| NCCCNCCCCN(CCCN)/[N+]([O-])=N/O [SPER/NO, spermine/NO] | – | – | increased NO levels within treated fungi | visual increase in PI fluorescence | marked decrease in hyphae formation |
